The target of one test is ORL1 receptor (Homo sapiens, UniProt P41146). The test is described as follows: ORL1 receptor binding assay with 3H-nociceptin/orphanin FQ, membranes of recombinant CHO-ORL1 cells.
The target of another test is human μ-opiate receptor (Homo sapiens, UniProt P35372). Put plainly: μ-opiate receptor binding, [3H]-naloxone displacement, CHO-K1 membrane preparation.
[1] abbreviates: read-out: ORL1 human Ki, No. 1-49.

Amino acid sequences for entries named in this document (tags omitted). A change or cut given only in a name is not applied to a line headed by its entry.
UniProt P41146: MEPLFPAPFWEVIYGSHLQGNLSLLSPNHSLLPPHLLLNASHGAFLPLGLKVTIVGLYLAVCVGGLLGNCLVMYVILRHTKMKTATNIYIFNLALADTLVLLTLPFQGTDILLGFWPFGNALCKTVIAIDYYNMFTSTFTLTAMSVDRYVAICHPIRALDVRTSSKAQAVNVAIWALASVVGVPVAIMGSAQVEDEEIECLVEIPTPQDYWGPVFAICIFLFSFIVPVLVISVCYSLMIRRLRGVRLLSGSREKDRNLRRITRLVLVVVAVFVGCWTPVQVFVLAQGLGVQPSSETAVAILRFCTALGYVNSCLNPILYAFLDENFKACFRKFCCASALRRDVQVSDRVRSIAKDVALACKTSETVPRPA
UniProt P35372, whole entry, looked up: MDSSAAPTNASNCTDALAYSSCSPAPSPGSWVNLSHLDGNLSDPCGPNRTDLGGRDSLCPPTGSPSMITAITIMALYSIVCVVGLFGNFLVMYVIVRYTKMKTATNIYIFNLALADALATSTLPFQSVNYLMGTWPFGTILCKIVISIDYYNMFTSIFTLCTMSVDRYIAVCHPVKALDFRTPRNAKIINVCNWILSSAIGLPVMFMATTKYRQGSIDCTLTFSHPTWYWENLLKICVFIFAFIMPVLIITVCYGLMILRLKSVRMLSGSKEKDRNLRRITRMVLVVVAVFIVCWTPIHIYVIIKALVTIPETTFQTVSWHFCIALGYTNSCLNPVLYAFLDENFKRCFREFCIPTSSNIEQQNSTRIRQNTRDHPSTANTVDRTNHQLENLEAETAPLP

pKi: −log10 of the molar value. Where two headings read alike, the source gives them in different places.

As to `CN(C)C1(c2ccc(F)cc2)CCC2(CC1)NCCc1c2[nH]c2ccccc12` (centres unmarked), on ORL1 receptor (No. 1-49), the “ORL1/μ Ratio calculated as Ki(μ)/Ki(ORL1)” value (from here on “ORL1/μ Ratio calculated”) is 1.12. Also, the pKi (as a rule, −log10 of the Ki, conventionally taken in molar units) is 8.59 at ORL1 receptor (setting [1]) and 8.54 at human μ-opiate receptor (read-out: μ Ki, No. 1-49).
As to `CN(C)C1(Cc2ccccc2)CCC2(CC1)c1[nH]c3ccccc3c1CCN2C(=O)c1cccc([N+](=O)[O-])c1` (centres unmarked), the ORL1/μ ratio on ORL1 receptor (No. 50-145) was found to be 0.52. The pKi on ORL1 receptor (read-out: ORL1, Ki, No. 50-145) was 7.77; on human μ-opiate receptor (read-out: μ, Ki, No. 50-145), 8.06.
Turning to `CN(C)C1(Cc2ccccc2)CCC2(CC1)c1[nH]c3ccccc3c1CCN2C(=O)/C=C/c1ccccc1` (centres unmarked), the ORL1/μ ratio on ORL1 receptor (No. 50-145) worked out at 1.54. Also, the negative logarithm of the Ki (pKi) on ORL1 receptor (read-out: ORL1, Ki, No. 50-145) is 7.62; on human μ-opiate receptor (read-out: μ, Ki, No. 50-145) it was 7.43.
Consider `CN(C)C1(c2cccc(F)c2)CCC2(CC1)c1[nH]c3ccccc3c1CCN2C(=O)C1CCCC1` (centres unmarked), for which the ORL1/μ ratio at ORL1 receptor (No. 50-145) was 4.78. In addition, the pKi is 8.17 at ORL1 receptor (read-out: ORL1, Ki, No. 50-145) and 7.49 at human μ-opiate receptor (read-out: μ, Ki, No. 50-145).
Taken in the same sequence, the figures for `CN(C)C1(c2ccccc2)CCC2(CC1)c1[nH]c3ccccc3c1CCN2C(=O)c1cc(Cl)cc(Cl)c1` (centres unmarked) were 0.64, 7.26 and 7.46.
Regarding `CC1Cc2c(n(C)c3ccccc23)C2(CCC(c3ccccc3)(N(C)C)CC2)O1` (centres unmarked), the “ORL-1 [1 μM], % inhibition” value on ORL1 receptor (1 μM) amounted to 15%. In addition, the “μ-opiate-receptor [1 μM], % inhibition” value on human μ-opiate receptor (1 μM) is listed as 75%.
In the case of `CCCC(=O)N1CCc2c([nH]c3ccccc23)C12CCC(c1cccc(F)c1)(N(C)C)CC2` (centres unmarked), the ORL1/μ ratio on ORL1 receptor (No. 50-145) is 2.00. For the same compound, the pKi on ORL1 receptor (read-out: ORL1, Ki, No. 50-145) was 8.85; at human μ-opiate receptor (read-out: μ, Ki, No. 50-145) it was 8.55.
Taken in the same sequence, the figures for `CN(C)C1(Cc2ccccc2)CCC2(CC1)c1[nH]c3ccccc3c1CCN2C(=O)c1c(F)cccc1F` (centres unmarked) were 1.54, 7.27 and 7.08.
Taken in the same sequence, the figures for `CN(C)C1(c2ccccc2)CCC2(CC1)c1[nH]c3ccccc3c1CCN2C(=O)c1cccc(F)c1F` (centres unmarked) were 0.33, 7.54 and 8.02.
Taken in the same sequence, the figures for `CN(C)C1(c2ccccc2)CCC2(CC1)c1[nH]c3ccccc3c1CCN2C(=O)c1cccc(F)c1` (centres unmarked) were 1.50, 8.55 and 8.38.
As for `CN(C)C1(c2cccc(F)c2)CCC2(CC1)c1[nH]c3ccccc3c1CCN2C(=O)c1ccc([N+](=O)[O-])cc1` (centres unmarked), at ORL1 receptor (No. 50-145), the ORL1/μ ratio turned out to be 0.97. Further, the pKi at ORL1 receptor (read-out: ORL1, Ki, No. 50-145) was 8.19; at human μ-opiate receptor (read-out: μ, Ki, No. 50-145), 8.21.
Consider `CN(C)C1(Cc2ccccc2)CCC2(CC1)c1[nH]c3ccccc3c1CCN2C(=O)Cc1cccs1` (centres unmarked), for which, at ORL1 receptor (No. 50-145), the ORL1/μ ratio is reported as 0.79. The pKi at ORL1 receptor (read-out: ORL1, Ki, No. 50-145) was 7.85; on human μ-opiate receptor (read-out: μ, Ki, No. 50-145), 7.96.
For the compound `CN(C)C1(c2cccc(F)c2)CCC2(CC1)c1[nH]c3ccccc3c1CCN2C(=O)c1ccc(F)cc1F` (centres unmarked), the ORL1/μ ratio at ORL1 receptor (No. 50-145) is 1.06. The pKi at ORL1 receptor (read-out: ORL1, Ki, No. 50-145) is 7.80; on human μ-opiate receptor (read-out: μ, Ki, No. 50-145) it was 7.77.
As for `CN(C)C1(c2cccc(F)c2)CCC2(CC1)c1[nH]c3ccccc3c1CCN2C(=O)CC(C)(C)C` (centres unmarked), the ORL1/μ ratio at ORL1 receptor (No. 50-145) stood at 5.00. Moreover, the pKi at ORL1 receptor (read-out: ORL1, Ki, No. 50-145) is 8.59; on human μ-opiate receptor (read-out: μ, Ki, No. 50-145) it was 7.89.
Taken in the same sequence, the figures for `COC(=O)CCC(=O)N1CCc2c([nH]c3ccccc23)C12CCC(c1cccc(F)c1)(N(C)C)CC2` (centres unmarked) were 0.86, 7.54 and 7.60.
Consider `Cc1cccc(C(=O)N2CCc3c([nH]c4ccccc34)C23CCC(Cc2ccccc2)(N(C)C)CC3)c1` (centres unmarked), for which the ORL1/μ ratio on ORL1 receptor (No. 50-145) came to 0.75. In addition, the pKi at ORL1 receptor (read-out: ORL1, Ki, No. 50-145) is 7.80; on human μ-opiate receptor (read-out: μ, Ki, No. 50-145), 7.92.
As for `CC1Cc2c([nH]c3ccc([N+](=O)[O-])cc23)C2(CCC(c3ccccc3)(N(C)C)CC2)O1` (centres unmarked), the “ORL1/μ Ratio calculated” value on ORL1 receptor (No. 1-49) is reported as 1.29. In addition, the pKi is 7.52 at ORL1 receptor (setting [1]) and 7.40 on human μ-opiate receptor (read-out: μ Ki, No. 1-49).
Taken in the same sequence, the figures for `CN(C)C1(c2ccccc2)CCC2(CC1)NC(CO)Cc1c2[nH]c2ccccc12` (centres unmarked) were 2.70, 9.00 and 8.57.
Turning to `CN(C)C1(Cc2ccccc2)CCC2(CC1)c1[nH]c3ccccc3c1CCN2C(=O)C1CCC1` (centres unmarked), the ORL1/μ ratio on ORL1 receptor (No. 50-145) was 1.17. For the same compound, the pKi at ORL1 receptor (read-out: ORL1, Ki, No. 50-145) was 7.39; on human μ-opiate receptor (read-out: μ, Ki, No. 50-145) it was 7.32.
Taken in the same sequence, the figures for `CN(C)C1(c2ccccc2)CCC2(CC1)c1[nH]c3ccccc3c1CCN2C(=O)C1CCC1` (centres unmarked) were 0.45, 7.12 and 7.47.
Taken in the same sequence, the figures for `CN(C)C1(Cc2ccccc2)CCC2(CC1)c1[nH]c3ccccc3c1CCN2C(=O)c1cc(F)c(F)c(F)c1F` (centres unmarked) were 0.50, 7.52 and 7.82.
As for `CN(C)C1(c2cccc(F)c2)CCC2(CC1)OCCc1c2[nH]c2ccccc12` (centres unmarked), on ORL1 receptor (No. 1-49), the “ORL1/μ Ratio calculated” value was 1.79. The pKi is 8.92 at ORL1 receptor (setting [1]) and 8.66 at human μ-opiate receptor (read-out: μ Ki, No. 1-49).
Take `CN(C)C1(Cc2ccccc2)CCC2(CC1)c1[nH]c3ccccc3c1CCN2C(=O)C1CCCCC1` (centres unmarked): on ORL1 receptor (No. 50-145), the ORL1/μ ratio is given as 1.31. The negative-log Ki (pKi) on ORL1 receptor (read-out: ORL1, Ki, No. 50-145) was 7.89; on human μ-opiate receptor (read-out: μ, Ki, No. 50-145) it was 7.77.

(Values after US8034936B2, “Spirocyclic cyclohexane compounds useful to treat substance dependency” (Gruenenthal GmbH, priority 2005, dated 2011).)
